Experimental data as given in patent CN111253486A.

Sequences of proteins named here, by UniProt entry; tags and fusion partners are left off. Residues count along the entry.
UniProt Q15116, 25-167 limits assumed: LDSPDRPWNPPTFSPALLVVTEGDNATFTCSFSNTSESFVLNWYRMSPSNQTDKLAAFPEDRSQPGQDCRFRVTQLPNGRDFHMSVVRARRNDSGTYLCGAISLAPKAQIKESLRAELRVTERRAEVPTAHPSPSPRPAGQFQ
UniProt Q15116, 25-170: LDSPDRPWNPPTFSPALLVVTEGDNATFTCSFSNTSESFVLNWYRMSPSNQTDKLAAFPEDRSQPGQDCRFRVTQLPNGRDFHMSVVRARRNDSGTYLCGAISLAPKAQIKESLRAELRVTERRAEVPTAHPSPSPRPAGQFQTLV
UniProt Q15116, 25-288: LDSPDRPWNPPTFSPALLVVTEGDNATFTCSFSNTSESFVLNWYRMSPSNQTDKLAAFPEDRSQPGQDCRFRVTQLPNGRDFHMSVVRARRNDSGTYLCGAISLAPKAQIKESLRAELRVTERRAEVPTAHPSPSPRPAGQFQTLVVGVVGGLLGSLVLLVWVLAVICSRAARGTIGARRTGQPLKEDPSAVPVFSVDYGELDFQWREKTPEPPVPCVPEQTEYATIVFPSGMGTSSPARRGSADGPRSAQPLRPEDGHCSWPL

Key:
[1] = target: Tag-PD-1 (CISBIO HTRF PD-1/PD-L1 binding assay kit 63ADK000CPLPEB) (UniProt Q15116); experiment: HTRF competition, blocking of PD-1/PD-L1 binding
[2] = target: human PD-1-his (recombinant human PD-1 extracellular domain with C-terminal polyhistidine tag) (human) (UniProt Q15116); experiment: SPR (Biacore 8K), antibody captured, antigen injected
[3] = target: Tag-PD-1 (CISBIO HTRF PD-1/PD-L1 binding assay kit 63ADK000CPLPEB) (UniProt Q15116); experiment: HTRF competition, blocking of PD-1/PD-L1 binding; relative inhibition
[4] = target: human PD-1 expressed on cells (CHO-K1 cells expressing human PD-1) (human) (UniProt Q15116); experiment: cell-based or functional assay

Substance | IC50 [1] | Kd [2] | koff [2] | kon [2] | 最小I% [3] | EC50 calculated from the Jurkat-NFAT luciferase reporter assay [4]
nivolumab analog (Chempartners), reference anti-PD-1 antibody | 3.79 nM | 4 nM | 0.00152 s⁻¹ | 381000 M⁻¹ s⁻¹ | 0.715% and 12.7% | –
pembrolizumab analog (CrownBio), reference anti-PD-1 antibody | – | 1.65 nM | 0.00474 s⁻¹ | 2.88e+06 M⁻¹ s⁻¹ | – | 0.12 nM

Values joined by “and” are separate entries in the source; they are usually repeats but may differ in a detail not shown here. Equal values may be shown once.
